Measured values as given in ChEMBL document CHEMBL5506064, “Discovery of ITI-333, a Novel Orally Bioavailable Molecule Targeting Multiple Receptors for the Treatment of Pain and Other Disorders” (J Med Chem, 2024).
Activity calls are given as the source filed them. The calls are words filed in the database; no cut-off is given here.

Chains of the proteins cited; added tags and fusions are not shown.
UniProt P21728, whole entry: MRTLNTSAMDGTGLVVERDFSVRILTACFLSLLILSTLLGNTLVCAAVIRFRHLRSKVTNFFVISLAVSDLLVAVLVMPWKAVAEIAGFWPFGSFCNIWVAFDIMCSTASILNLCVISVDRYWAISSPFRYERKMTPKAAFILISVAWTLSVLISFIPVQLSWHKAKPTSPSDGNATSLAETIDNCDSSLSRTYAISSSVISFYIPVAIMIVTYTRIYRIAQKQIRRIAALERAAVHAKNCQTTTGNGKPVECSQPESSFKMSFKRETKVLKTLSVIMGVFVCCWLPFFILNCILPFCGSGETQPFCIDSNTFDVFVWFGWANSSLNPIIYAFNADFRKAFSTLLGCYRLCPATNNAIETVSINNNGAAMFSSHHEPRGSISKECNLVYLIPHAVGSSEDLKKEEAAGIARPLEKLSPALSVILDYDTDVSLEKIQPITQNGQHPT
UniProt P28223, whole entry: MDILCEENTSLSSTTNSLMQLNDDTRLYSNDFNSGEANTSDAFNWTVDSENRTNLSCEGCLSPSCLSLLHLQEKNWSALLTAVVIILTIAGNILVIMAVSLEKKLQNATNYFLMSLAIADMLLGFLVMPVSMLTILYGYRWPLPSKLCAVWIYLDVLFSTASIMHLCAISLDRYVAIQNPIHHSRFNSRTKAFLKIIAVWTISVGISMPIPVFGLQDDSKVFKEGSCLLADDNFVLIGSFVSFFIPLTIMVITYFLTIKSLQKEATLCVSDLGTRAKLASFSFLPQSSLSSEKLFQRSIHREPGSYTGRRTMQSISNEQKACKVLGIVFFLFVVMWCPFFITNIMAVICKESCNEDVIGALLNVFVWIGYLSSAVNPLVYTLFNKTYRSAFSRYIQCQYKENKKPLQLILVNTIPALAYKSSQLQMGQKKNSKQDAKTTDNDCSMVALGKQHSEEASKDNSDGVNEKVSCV
UniProt P14416, whole entry: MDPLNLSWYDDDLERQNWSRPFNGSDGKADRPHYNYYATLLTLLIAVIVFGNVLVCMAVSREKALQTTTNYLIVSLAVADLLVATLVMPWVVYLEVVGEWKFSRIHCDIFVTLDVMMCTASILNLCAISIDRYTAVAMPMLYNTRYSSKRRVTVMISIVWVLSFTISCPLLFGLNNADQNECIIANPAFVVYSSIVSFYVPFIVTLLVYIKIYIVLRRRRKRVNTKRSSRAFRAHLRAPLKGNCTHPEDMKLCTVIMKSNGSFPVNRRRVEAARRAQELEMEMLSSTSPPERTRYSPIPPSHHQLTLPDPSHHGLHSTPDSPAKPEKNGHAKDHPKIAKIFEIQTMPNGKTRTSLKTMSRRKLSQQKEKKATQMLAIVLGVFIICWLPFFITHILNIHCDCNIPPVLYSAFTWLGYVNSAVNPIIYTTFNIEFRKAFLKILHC
UniProt P31645, whole entry, looked up: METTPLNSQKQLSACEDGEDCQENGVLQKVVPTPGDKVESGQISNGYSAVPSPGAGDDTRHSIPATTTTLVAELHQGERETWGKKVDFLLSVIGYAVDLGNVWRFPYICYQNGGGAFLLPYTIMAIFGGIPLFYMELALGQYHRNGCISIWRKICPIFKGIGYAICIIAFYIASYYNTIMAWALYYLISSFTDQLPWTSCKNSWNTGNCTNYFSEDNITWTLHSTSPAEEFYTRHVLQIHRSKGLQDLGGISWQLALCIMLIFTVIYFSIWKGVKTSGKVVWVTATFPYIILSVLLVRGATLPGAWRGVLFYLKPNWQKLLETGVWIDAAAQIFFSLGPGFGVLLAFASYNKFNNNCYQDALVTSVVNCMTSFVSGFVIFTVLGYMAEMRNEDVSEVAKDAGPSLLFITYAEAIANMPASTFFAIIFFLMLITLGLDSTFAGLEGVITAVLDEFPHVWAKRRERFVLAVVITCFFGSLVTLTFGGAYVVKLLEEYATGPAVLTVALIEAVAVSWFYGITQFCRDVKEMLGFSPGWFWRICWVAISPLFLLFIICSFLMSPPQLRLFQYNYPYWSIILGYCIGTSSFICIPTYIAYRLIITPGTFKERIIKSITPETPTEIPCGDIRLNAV

How the values were obtained:
[1] = target: D(1A) dopamine receptor (Homo sapiens) (UniProt P21728); assay: Displacement of [3H]SCH-23390 from human dopamine D1 receptor expressed in CHO cell membrane assessed as inhibition of radioligand binding at 100 nM incubated for 60 mins by competition binding based scintillation counter analysis relative to control; type: cell membranes
[2] = target: 5-hydroxytryptamine receptor 2A (Homo sapiens) (UniProt P28223); assay: Displacement of [125I]DOI from human 5-HT2A receptor expressed in HEK293 cell membrane assessed as inhibition of radioligand binding at 100 nM incubated for 60 mins by competition binding based scintillation counter analysis relative to control; type: cell membranes
[3] = target: D(2) dopamine receptor (Homo sapiens) (UniProt P14416); assay: Displacement of [3H]7-OH-DPAT from human dopamine D2 receptor expressed in HEK293 cell membrane assessed as inhibition of radioligand binding at 100 nM incubated for 60 mins by competition binding based scintillation counter analysis relative to control; type: cell membranes
[4] = target: Sodium-dependent serotonin transporter (Homo sapiens) (UniProt P31645); assay: Displacement of [3H]-imipramine from human 5-HT transporter expressed in CHO cell membrane assessed as inhibition of radioligand binding at 200 nM incubated for 60 mins by competition binding based scintillation counter analysis relative to control; type: cell membranes
[5] = target: Sodium-dependent serotonin transporter (Homo sapiens) (UniProt P31645); assay: Displacement of [3H]-imipramine from human 5-HT transporter expressed in CHO cell membrane assessed as inhibition of radioligand binding at 100 nM incubated for 60 mins by competition binding based scintillation counter analysis relative to control; type: cell membranes
[6] = target: D(1A) dopamine receptor (Homo sapiens) (UniProt P21728); conditions: CHO, Cell membrane, dose 50.0 nM, time 60.0 min
[7] = target: 5-hydroxytryptamine receptor 2A (Homo sapiens) (UniProt P28223); conditions: HEK293, Cell membrane, dose 10.0 nM, time 60.0 min

Row | inhibition [1] | inhibition [2] | inhibition [3] | inhibition [4] | inhibition ([2]; filed as antagonist) | SMILES | further results
1 | 11% | 32% | 25% | inactive |  | O=C1CN2c3c(cccc3[C@@H]3CN(CCCNc4ccc(F)cc4)CC[C@@H]32)N1 | 
2 | 32% |  | 24% | 16% | 85% | O=C1CN2c3c(cccc3[C@@H]3CN(CCCCc4ccc(F)cc4)CC[C@@H]32)N1 | 
3 |  |  |  |  |  | Cn1nc(CCCN2CC[C@H]3[C@@H](C2)c2cccc4c2N3CC(=O)N4)c2ccc(F)cc21 | inhibition [5]: 35%; inhibition ([1]; filed as antagonist): 54%; inhibition ([3]; filed as antagonist): 43%
4 |  | inactive |  |  |  | N#Cc1ccc(OCCCN2CC[C@H]3[C@@H](C2)c2cccc4c2N3CC(=O)N4)cc1 | inhibition [6]: 7%
5 | inactive | inactive |  |  |  | O=C1CN2c3c(cccc3[C@@H]3CN(CCCOc4cccc5cccnc45)CC[C@@H]32)N1 | 
6 | inactive |  |  |  |  | O=C1CN2c3c(cccc3[C@@H]3CN(CCCOc4ccc(Cl)cc4)CC[C@@H]32)N1 | inhibition [7]: 15%
7 |  |  |  | inactive | 93% | O=C1CN2c3c(cccc3[C@@H]3CN(CCCSc4ccc(F)cc4)CC[C@@H]32)N1 | inhibition ([1]; filed as antagonist): 54%; inhibition ([3]; filed as antagonist): 49%
8 | 37% |  | 37% | inactive | 90% | O=c1[nH]c2cccc3c2n1[C@H]1CCN(CCCOc2ccc(F)cc2)C[C@@H]31 | 
